Ratio IC50 data for 4 molecules are collected here from ChEMBL document CHEMBL5038666, “Discovery of DNA-Targeting HDAC Inhibitors with Potent Antitumor Efficacy In Vivo That Trigger Antitumor Immunity” (J Med Chem, 2022).

Chains of the proteins cited; added tags and fusions are not shown.
UniProt Q13547, whole entry: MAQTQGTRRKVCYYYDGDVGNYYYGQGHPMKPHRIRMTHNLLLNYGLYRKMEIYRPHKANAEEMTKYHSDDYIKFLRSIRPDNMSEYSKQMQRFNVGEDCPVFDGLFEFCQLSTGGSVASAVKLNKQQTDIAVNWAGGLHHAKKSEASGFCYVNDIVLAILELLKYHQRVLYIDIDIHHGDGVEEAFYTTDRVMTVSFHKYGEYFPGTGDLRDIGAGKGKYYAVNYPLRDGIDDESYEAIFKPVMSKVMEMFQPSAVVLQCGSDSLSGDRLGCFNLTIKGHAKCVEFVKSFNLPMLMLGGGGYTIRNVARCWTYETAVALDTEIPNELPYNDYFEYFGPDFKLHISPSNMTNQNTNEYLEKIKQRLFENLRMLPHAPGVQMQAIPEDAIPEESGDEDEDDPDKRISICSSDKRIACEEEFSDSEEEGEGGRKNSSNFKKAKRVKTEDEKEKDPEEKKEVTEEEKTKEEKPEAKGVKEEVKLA

The target in experiment [1] is T1, Protein deacetylase HDAC6 (Homo sapiens) (UniProt Q9UBN7).
T1 sequence (whole entry): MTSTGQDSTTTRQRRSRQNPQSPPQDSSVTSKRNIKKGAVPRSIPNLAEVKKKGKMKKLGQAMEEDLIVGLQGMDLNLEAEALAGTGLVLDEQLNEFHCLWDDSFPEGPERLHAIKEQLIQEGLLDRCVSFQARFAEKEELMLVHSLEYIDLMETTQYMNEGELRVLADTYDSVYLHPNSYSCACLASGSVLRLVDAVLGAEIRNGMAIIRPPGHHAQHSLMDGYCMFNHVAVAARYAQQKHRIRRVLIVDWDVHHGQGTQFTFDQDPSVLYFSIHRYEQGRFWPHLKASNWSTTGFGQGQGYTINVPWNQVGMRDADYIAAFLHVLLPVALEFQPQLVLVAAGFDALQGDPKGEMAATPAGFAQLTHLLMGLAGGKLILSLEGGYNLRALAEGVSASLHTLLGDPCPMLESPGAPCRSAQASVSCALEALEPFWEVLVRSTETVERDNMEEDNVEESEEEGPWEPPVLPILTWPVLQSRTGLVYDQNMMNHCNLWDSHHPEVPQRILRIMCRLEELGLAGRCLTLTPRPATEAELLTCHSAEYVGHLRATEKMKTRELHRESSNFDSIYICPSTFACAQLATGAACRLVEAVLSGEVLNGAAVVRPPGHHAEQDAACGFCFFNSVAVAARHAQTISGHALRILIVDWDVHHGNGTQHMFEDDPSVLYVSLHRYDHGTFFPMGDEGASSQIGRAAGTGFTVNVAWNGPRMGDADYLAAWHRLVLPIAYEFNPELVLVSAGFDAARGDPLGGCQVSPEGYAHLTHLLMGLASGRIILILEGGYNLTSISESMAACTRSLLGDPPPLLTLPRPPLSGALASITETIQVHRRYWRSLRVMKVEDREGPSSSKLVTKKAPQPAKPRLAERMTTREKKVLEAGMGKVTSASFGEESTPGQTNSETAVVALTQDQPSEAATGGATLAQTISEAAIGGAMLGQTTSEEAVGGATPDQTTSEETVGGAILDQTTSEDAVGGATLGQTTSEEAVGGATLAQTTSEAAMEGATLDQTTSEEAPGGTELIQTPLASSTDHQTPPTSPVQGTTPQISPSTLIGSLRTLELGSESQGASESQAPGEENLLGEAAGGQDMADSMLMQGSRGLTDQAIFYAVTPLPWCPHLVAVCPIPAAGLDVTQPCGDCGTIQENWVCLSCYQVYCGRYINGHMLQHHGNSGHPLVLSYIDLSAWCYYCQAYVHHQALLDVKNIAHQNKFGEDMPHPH
In words: Potency index, ratio of SAHA IC50 to test compound IC50 for inhibition of HDAC6 (unknown origin) using fluorogenic substrate incubated for 30 mins by fluorescence based assay.

In the next experiment the target is Histone deacetylase 1 (Homo sapiens, UniProt Q13547). In words: Potency index, ratio of SAHA IC50 to test compound IC50 for inhibition of HDAC1 (unknown origin) using fluorogenic substrate incubated for 30 mins by fluorescence based assay.

Each structure is given as a SMILES string.

Consider `O=C(CCCCCCCOc1cccc(-c2nc3ccc(-c4nc5ccccc5[nH]4)cc3[nH]2)c1)NO`, for which the Ratio IC50 in experiment [1] was determined as 2.5.
The same measure, in the same setting: under `O=C(CCCCCCCOc1cccc(-c2nc3ccccc3[nH]2)c1)NO` stands 2.5.
As for `O=C(CCCCCCOc1cccc(-c2nc3ccccc3[nH]2)c1)NO`, the Ratio IC50 stood at 2.5 in experiment [1] and 10 at Histone deacetylase 1.
Take `O=C(CCCCCCOc1ccc(-c2nc3ccc(-c4nc5ccccc5[nH]4)cc3[nH]2)cc1)NO`: the Ratio IC50 in experiment [1] was 2.5.
